Entries after “also recorded” stand apart in the source; their conditions may differ.
How the values were obtained:
in vivo = experiment: in vivo; parameters: species or system rat (male and female Wistar); details: po, rat, administered orally, read-out: Toxicity LD50
Experimental: The animals were used in the experiment after being fasted for about 18 hours and only received food again five hours after administration of the product. After a three-week observation period, they were sacrificed with chloroform and autopsied. The organs were assessed macroscopically. The test compounds were dissolved in 1% strength CMC suspension and administered to the rats through a stomach tube in a volume of 5 ml/kg BW.

[1] = Acetic acid extension test on mice (analgesic action); details: mouse, in vivo, po
Experimental: (§1) (a) Acetic acid extension test on mice in accordance with the method of R. Koster et al., Fed. Prod.
(§2) Female mice of a N.M.R.I. strain with a body weight (BW) of between 21 and 28 g were used as the experimental animals. Groups of in each case 12 animals received 0.1 ml/10 g BW of a 0.6% strength acetic acid solution, injected intraperitoneally. The test substances were administered 30 minutes beforehand. Immediately after the acetic acid injection, the animals were placed individually and the typical extension movements occurring within 15 minutes were counted, these consisting of brief flexing of the abdominal muscles with withdrawal of the sides and subsequent extension of the rear of the body and of at least one rear extremity.
(§3) The test substances were administered orally in a volume of 10 ml/kg BW in 1% strength aqueous carboxymethylcellulose (CMC) suspension.

mice = experiment: as above; details: versus the two comparison products, oral
Experimental: as §1, §2, §3

[2] = Modified Randall-Selitto hyperalgesia test on rats (analgesic action); details: rat, in vivo, po
Experimental: (§4) (b) Modified Randall-Selitto hyperalgesia test on rats in accordance with the method of Atkinson et al., J. Pharm. Pharmac.
(§5) Male Sprague-Dawley rats with a body weight of 200 to 300 g were used as the experimental animals. The experimental animals were given a subplantar injection of 0.2 ml of brewer's yeast suspension (40% of yeast in 0.9% strength NaCl solution) into the left hind paw under mild ether anaesthesia. After 5 hours, the gait of the animals over a metal grating was evaluated according to the following scale:
(§6) The evaluation was effected by determining the percentage of animals evaluated with stage 1 or 0.5, two animals given 0.5 being regarded as showing an analgesic effect.
(§7) The test substances were administered orally, to animals which had been fasted for 15 hours, in CMC suspension in a volume of 10 ml/kg BW two hours before the evaluation of the animals. In order to exclude subjective influences, the evaluation was performed by two people independently of one another and without knowledge of the pretreatment of the animals (n=10/dose). The ED50 values were determined with the aid of linear regression in accordance with the method of Fieller and Sidak.

rats = experiment: as above; details: versus comparison products, at ED50 of 85 mg/kg, rat, oral; 85 mg/kg
Experimental: as §4, §5, §6, §7

| Structure (SMILES) | LD50 at 504 h (in vivo) [mg/kg] | selectivity ratio [1] | Relative effectiveness in the pain test on mice (mice) | selectivity ratio [2] | Relative analgesic activity, Randall-Selitto (rats) |
| --- | --- | --- | --- | --- | --- |
| Cc1oncc1C(=O)N1CCCCC1 [Example 1, N-(5-Methyl-4-isoxazolylcarbonyl)-piperidine] | 1240 | 27.6 | at least three times that of the two comparison products | 14.6 | twice as active as acetylsalicylic acid; also recorded: four times as powerful than Paracetamol |
| CC(=O)Nc1ccc(O)cc1 [Paracetamol, reference compound] | 1940 | – | – | – | – |
